{"source": "paper PMC10050139", "origin": "cited, not measured here", "target": "Kemptide"}
{"substance": "PKA C-subunit (from UniProt P17612)", "values": [{"measurement": "Kd", "result": 250, "unit": "µM"}]}
